Yeast mating assay B: variants of the scFv Ab-14

Values reported by Li et al. 2023, doi:10.1038/s41467-023-39022-2 (FLAb copy).

Antigen: PDVDLGDISGINAS, a 14-residue peptide of the SARS-CoV-2 spike HR2 region.

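The starting antibody came from a phage panning campaign against this peptide. The variants were designed computationally from a first round of random CDR variants and then made and measured. Group labels follow the data file (Ctrl: baseline library sampled from a position-specific scoring matrix, with some repeated check sequences; En: ensemble of fine-tuned language models; GP: Gaussian process model; GPLM: also part of the Gaussian process libraries; HC: hill climbing; Gen: genetic algorithm; Gibbs: Gibbs sampling; a sequence that several methods proposed may carry one label only). The assay is AlphaSeq: two haploid yeast populations carry antibody and antigen on their surface. Binding brings cells together so that they mate, and sequencing counts the barcode pairs among the diploids. Scores were corrected for input abundance and mapped to Kd with protein pairs of known affinity run in the same pool. Each pool was mated in six replicate cultures.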

Parent: Ab-14, a human scFv built as VH, the linker GGGGSGGGGSGGGGS, VL. Only the CDRs of the heavy chain vary.
VH: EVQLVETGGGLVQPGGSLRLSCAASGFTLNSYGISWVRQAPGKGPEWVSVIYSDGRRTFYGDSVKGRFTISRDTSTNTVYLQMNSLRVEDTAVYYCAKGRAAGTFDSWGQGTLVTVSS
VL: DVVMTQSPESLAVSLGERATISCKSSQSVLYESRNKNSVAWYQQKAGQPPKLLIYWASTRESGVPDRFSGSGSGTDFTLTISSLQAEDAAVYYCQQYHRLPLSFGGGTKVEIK

Variants are written as CDR1, CDR2 and CDR3 of the heavy chain (limits as in the source). Parent: GFTLNSYGIS, VIYSDGRRTFYGDSVK, GRAAGTFDS.
Numbers give log10(Kd / nM), so 0 is 1 nM and 3 is 1 µM. Smaller is tighter.
The mean shown is taken over the replicates in which the pair was detected.
A pair that was not seen in that replicate is written "ND"; this usually means weak binding, but a binder can also be missed.
Order: sorted from the lowest average up, undetected variants last.
In the paper, a design with two or fewer of six values counts as a poor binder.
A sequence measured in both rounds can read differently, since the two assays cover different ranges.
As a blank, each scFv also met three strains without target: over all heavy chain designs, 1% of these pairings were detected, typically at 2.08 and seldom below 0.84.

log10 Kd, replicates | log10 Kd (nM), mean | CDR-H1 | CDR-H2 | CDR-H3 | group
-0.52 -0.81 -0.78 -0.73 -1.04 -0.34 | -0.70 | GFDLDEYGIS | VIYADGRRTFYIDSVK | GNVAGTFDS | En_HC
-0.43 -0.81 -0.65 -0.66 -0.89 -0.63 | -0.68 | GFDLNEYGIS | VIYADGQRTAYADDVK | GEVAGTFDI | En_Gen
-0.37 -0.83 -0.64 -0.68 -0.65 -0.48 | -0.61 | GFDLNEYGIS | VIYADGVRTAYSDSVK | GGNAGTFDV | En_Gen
0.00 -0.41 -0.69 -0.39 -0.90 -0.47 | -0.48 | GFDLDEYGIS | VIYADGSRTAYADSVK | GNVAGTFDV | En_Gen
-0.33 -0.15 -0.94 -0.46 -0.04 -0.14 | -0.34 | GFDLMEYGVS | VIYADGQRAFYTDSVK | GKGAGTALN | En_Gibbs
-0.32 0.18 -0.42 -0.39 -0.27 -0.28 | -0.25 | GFSIDEYGIS | VIYADGVRQAYQDDVK | GQIGGTFNY | En_Gibbs
1.15 -0.14 -0.35 -0.45 -0.95 -0.72 | -0.24 | GFDLNEYGIS | VIYADGVRTAYADSVK | GNTAGTFDM | En_Gen
0.34 -0.11 -0.41 -0.31 -0.34 0.06 | -0.13 | GFTLNSYGIS | VIYADGRRTFYGDSVK | GHAAGTFDS | GPLM_Gen
0.19 0.12 -0.19 0.15 0.02 -0.31 | 0.00 | GFDLNSYGIS | VIYSDGRRTFYSDAVK | GRTAGTFDS | GPLM_Gen
-0.37 0.08 0.02 -0.11 -0.20 0.59 | 0.00 | GFDLNEYGIS | VIYADGLRTAYADDVK | GQNAGTFDV | En_Gen
0.17 0.15 -0.21 -0.45 0.25 0.53 | 0.07 | GFDLNSYGIS | VIYSDGRRTFYGDRVK | GRTAGTFDT | GP_Gen
0.35 -0.12 0.16 -0.05 -0.19 0.34 | 0.08 | GFDLNEYGIS | VIYADGMRTQYADSVK | GENAGTFDV | En_Gen
0.20 -0.27 0.84 0.57 -0.19 0.11 | 0.21 | GFDLNEYGIS | VIYADGLRTSYADSVK | GNNAGTFDQ | En_HC
0.36 0.34 0.17 0.14 0.40 0.28 | 0.28 | GFNLNEYGIS | VIYADGRRTFYADSVK | GQVAGTFIV | En_HC
-0.26 1.07 ND 0.44 0.74 0.13 | 0.43 | EFTLNSYGIS | VIYSDGRRTFYSDSVK | GEAGGTFDV | GP_HC
1.13 0.27 0.71 0.45 0.49 0.41 | 0.58 | GFDLNSYGIS | VIYSDGRRTFYGDPVK | GRQAGTFDS | GP_Gen
0.38 0.24 1.19 0.45 0.34 0.88 | 0.58 | GFSLNSYGIS | VIYSDGRRTFYADAVK | GKAAGTFDS | GPLM_Gen
0.67 -0.13 0.64 0.95 0.68 1.35 | 0.69 | GFSLNSYGIS | VIYSDGRRTYYGDSVK | GQAAGTFDS | GPLM_Gen
ND ND ND 0.94 0.55 ND | 0.75 | GFWLNSYGIS | VIYSDGRRTFYMDSVK | GATAGTFDS | Ctrl
1.27 0.40 1.03 0.68 0.64 1.32 | 0.89 | GFSLNGYGIS | VIYSDGRRTFYSDSVK | GSAAGTFDS | GP_HC
1.22 0.78 0.83 0.87 0.88 0.95 | 0.92 | GFHLNSYGIS | VIYSDGRRTFYSDSVK | GKLAGTFDS | GP_HC
2.08 0.45 0.88 0.23 0.74 2.05 | 1.07 | GFDLNSYGIS | VIYSDGRRTFYCDSVK | GRMAGTFDS | GP_Gen
ND 1.43 0.96 0.76 0.74 1.66 | 1.11 | GFHLNDYGIS | VIYSDGRRTYYIDSVK | GRAAGTFDS | GP_HC
ND ND ND ND 1.19 ND | 1.19 | GFYLNSYGIS | VIYSDGRRTFYHDSVK | GQLAGTFDS | GPLM_HC
1.00 1.27 1.51 1.50 1.24 1.42 | 1.33 | GFWLNDYGIS | VIYSDGRRTFYGDSVK | GRMAGTFDS | GP_HC
1.19 1.66 0.93 1.08 1.82 1.38 | 1.34 | GFDLNSYGIS | VIYSDGLRTFYGDSVK | GRAAGTFHS | Ctrl
ND ND ND 1.68 ND ND | 1.68 | GFTLQSYGIS | VIYSDGRRTMYGDSVK | GRAAGTFDS | Ctrl
ND ND 2.14 ND 2.61 ND | 2.37 | GFGLGEYGIS | VIYADGHRTAYSTSVK | GTIGGTFFQ | En_Gibbs
2.61 2.51 1.80 2.98 2.35 ND | 2.45 | GFDLNSYGIS | VIYSDGRRTFYGDSVK | GRYAGTFDQ | Ctrl
2.98 1.67 ND 3.13 3.62 2.90 | 2.86 | GFTLNSYGIS | VIYSDGRRTMYGDQVV | GRAAGTFDS | Ctrl
ND ND ND ND ND 2.92 | 2.92 | GFTLNEYGIS | VIYSDGRRTFYGDSVK | GRYAGTFSS | GP_HC
ND ND ND ND ND ND | ND | GFSLNEYGIS | VIYSDGRRTFYADAVK | GRTAGTFDK | GP_Gibbs
ND ND ND ND ND ND | ND | GFTLNSYGIS | VIYSDGRRTFYGDSVK | GRAAGTFKS | Ctrl
ND ND ND ND ND ND | ND | LNTLNQYGIS | VIYSDGRRTFYGDSVK | GRAAGTFHS | Ctrl
ND ND ND ND ND ND | ND | SFTLNSYGIS | VIYADGRRTFYGDSVK | GRTAGTFKS | GP_HC
ND ND ND ND ND ND | ND | GQDINEYGIS | VIYADGFRLAYVENVK | GENAGSVEV | En_Gibbs
ND ND ND ND ND ND | ND | GFDLDEYGIS | VIYADGMRTAYSDDVK | GENAGTFDV | En_Gen
ND ND ND ND ND ND | ND | GQSIEEYGIS | VIYADGKRTQYKNSVK | GTNADDITV | En_Gibbs
ND ND ND ND ND ND | ND | GFGLNSYDIS | VIYSDGRRTFYGDSVK | GIAAGTSDS | Ctrl
ND ND ND ND ND ND | ND | GFSLNEYGIS | VIYSDGRRTFYCDSVK | GPAAGTFDM | GP_HC
ND ND ND ND ND ND | ND | GFTLESYGIS | VIYADGRRTFYGDHVK | GRAAGTFMS | GP_HC

Top 6 of the variants detected in all replicates, tightest first:

CDR-H1	CDR-H2	CDR-H3	group	log10 Kd, replicates	log10 Kd (nM), mean
GFDLDEYGIS	VIYADGRRTFYIDSVK	GNVAGTFDS	En_HC	-0.52 -0.81 -0.78 -0.73 -1.04 -0.34	-0.70
GFDLNEYGIS	VIYADGQRTAYADDVK	GEVAGTFDI	En_Gen	-0.43 -0.81 -0.65 -0.66 -0.89 -0.63	-0.68
GFDLNEYGIS	VIYADGVRTAYSDSVK	GGNAGTFDV	En_Gen	-0.37 -0.83 -0.64 -0.68 -0.65 -0.48	-0.61
GFDLDEYGIS	VIYADGSRTAYADSVK	GNVAGTFDV	En_Gen	0.00 -0.41 -0.69 -0.39 -0.90 -0.47	-0.48
GFDLMEYGVS	VIYADGQRAFYTDSVK	GKGAGTALN	En_Gibbs	-0.33 -0.15 -0.94 -0.46 -0.04 -0.14	-0.34
GFSIDEYGIS	VIYADGVRQAYQDDVK	GQIGGTFNY	En_Gibbs	-0.32 0.18 -0.42 -0.39 -0.27 -0.28	-0.25